Assay results published in US8927244B2, “Organophosphorus hydrolase” (dated 2015).
Where “and” joins values, the source holds several entries; their conditions need not be identical. Equal values may be shown once.

Experiments:
[1] = Whole cell paraoxon hydrolysis after ethanol pretreatment
S. cerevisiae [2] = assay: Growth and viability of S. cerevisiae harboring pOPD-ESC-URA in ethanol
[3] = Whole cell paraoxon hydrolysis, control vs digitonin-permeabilized cells; conditions: yeast cells treated with digitonin
S. cerevisiae BY4741 [4] = assay: Paraoxon-inducible promoter-YeGFP biosensor assay
S. cerevisiae W3031A [5] = assay: Microarray analysis of yeast gene expression; conditions: 3 mM paraoxon 60 min
S. cerevisiae W3031A [6] = assay: Relative and real-time RT-PCR of paraoxon-responsive genes
S. cerevisiae BY4741 [7] = assay: Promoter-YDsRed biosensor assay; conditions: for YDsRed Fold-induction: 3 mM paraoxon 4.5 h
[8] = tested on: S. cerevisiae BY4741, erg3, erg4, erg6; assay: Sensitivity of yeast membrane mutants to paraoxon (growth curves); conditions: for Growth rate vs wild-type: 0.5 mM paraoxon; for Growth rate: 0.125 mM paraoxon
S. cerevisiae [9] = assay: Effect of paraoxon on S. cerevisiae growth
[10] = recombinant OPH+ yeast, associated with paraoxon hydrolysis
[11] = real-time RT-PCR, W3031A pESC-URA (empty plasmid), 3 mM paraoxon
[12] = real-time RT-PCR, W3031A pOPD-ESC-URA (expressing opd), 3 mM paraoxon

CCO
Fold-increase compared to control cultures ([1]; 2% ethanol pretreatment): 1.29 fold | Whole cell activity ([1]; 2% ethanol pretreatment 4.5 h): 0.36 μmoles paraoxon hydrolyzed/min/10^9 cells | Fold-increase compared to control cultures ([1]; 4% ethanol pretreatment): 1.46 fold | Whole cell activity ([1]; 4% ethanol pretreatment 4.5 h): 0.41 μmoles paraoxon hydrolyzed/min/10^9 cells | S. cerevisiae growth (OD600) (S. cerevisiae [2]; 2 or 4% ethanol): decrease in S. cerevisiae growth rate | Viability (trypan blue) vs control (S. cerevisiae [2]; 4% ethanol, 3.75 h treatment): no difference in the viability | S. cerevisiae growth (OD600) (S. cerevisiae [2]; 6-8% ethanol): severely inhibited growth

C[C@@H]1CC[C@@]2(OC1)O[C@H]1[C@@H](O)[C@H]3[C@@H]4CC[C@H]5C[C@@H](O[C@@H]6O[C@H](CO)[C@H](O[C@@H]7O[C@H](CO)C(O)[C@H](O[C@@H]8OC[C@@H](O)[C@H](O)[C@H]8O)[C@H]7O[C@@H]7O[C@H](CO)[C@H](O)[C@H](O[C@@H]8O[C@H](CO)[C@@H](O)[C@H](O)[C@H]8O)[C@H]7O)[C@H](O)[C@H]6O)[C@H](O)C[C@]5(C)[C@H]4CC[C@]3(C)[C@H]1[C@@H]2C (stereo partly drawn)
Increase of paraoxon hydrolysis compared to control cells [3]: 3 to 4 fold

CCOP(=O)(OCC)Oc1ccc([N+](=O)[O-])cc1
YeGFP fluorescence increase (S. cerevisiae BY4741 [4]; pYLR346C-F1-YeGFP, 0.1 mM paraoxon 2 h): 1.3 fold | YeGFP fold-induction (S. cerevisiae BY4741 [4]; yeast harboring pYGR035C-YeGFP, 3 mM paraoxon 2 h): 3 fold | YeGFP fold-induction (S. cerevisiae BY4741 [4]; yeast harboring pYLR346, 15 min exposure to paraoxon): 2 fold | YeGFP fold-induction (S. cerevisiae BY4741 [4]; yeast harboring pYLR346C-YeGFP, 3 mM paraoxon 2 h): 5 fold | Fold-induction, YGR213C (RTA1) (S. cerevisiae W3031A [5]): 152.2 fold | Fold-induction, YHR139C (SPS100) (S. cerevisiae W3031A [5]): 719.1 fold | Fold-induction, YIR017C (MET28) (S. cerevisiae W3031A [5]): 27.7 fold | Fold-induction, YLL056C (S. cerevisiae W3031A [5]): 18.5 fold | Fold-induction, YLR346C (S. cerevisiae W3031A [5]): 69.6 fold | Fold-induction, YOR186W (S. cerevisiae W3031A [5]): 269.1 fold | Fold-induction, YGL205W (POX1/FOX1) (S. cerevisiae W3031A [5]; [10]): 6.96 fold | Fold-induction, YGR287C (S. cerevisiae W3031A [5]; [10]): 3.86 fold | Fold-induction, YHL012W (S. cerevisiae W3031A [5]; [10]): 3.84 fold | Fold-induction, YJL219W (HXT9) (S. cerevisiae W3031A [5]; [10]): 3.94 fold | YGR035C induction (S. cerevisiae W3031A [6]; 0.5 mM paraoxon 60 min): 18 fold | YLR346C induction (S. cerevisiae W3031A [6]; 0.5 mM paraoxon 60 min): 8 fold | YGR035C induction (S. cerevisiae W3031A [6]; 1.0 mM paraoxon 60 min): 31 fold | YLR346C induction (S. cerevisiae W3031A [6]; 1.0 mM paraoxon 60 min): 10 fold | YGR035C induction (S. cerevisiae W3031A [6]; 2.5 mM paraoxon 7.5 min): 98 fold | YLR346C induction (S. cerevisiae W3031A [6]; 2.5 mM paraoxon 7.5 min): 32 fold | Fold-induction, HXT9, CP (S. cerevisiae W3031A [6]; [11]): 2.8 fold | Fold-induction, POX1, CP (S. cerevisiae W3031A [6]; [11]): 0.9 fold | Fold-induction, YGR287C, CP (S. cerevisiae W3031A [6]; [11]): 2 fold and 1.9 fold | Fold-induction, YHL012W, CP (S. cerevisiae W3031A [6]; [11]): 0.8 fold | Fold-induction, HXT9, TP (S. cerevisiae W3031A [6]; [12]): 2.7 fold | Fold-induction, POX1, TP (S. cerevisiae W3031A [6]; [12]): 2.4 fold | Fold-induction, YGR287C, TP (S. cerevisiae W3031A [6]; [12]): 9 fold and 9.1 fold | Fold-induction, YHL012W, TP (S. cerevisiae W3031A [6]; [12]): 1.0 fold | Gene expression of YOR186W, SPS100 and RTA1 (S. cerevisiae W3031A [6]; relative RT-PCR, 0.05-1.0 mM paraoxon 60 min): no obvious changes in gene expression | YDsRed Fold-induction (S. cerevisiae BY4741 [7]; control yeast (pESC-URA), pPOX1-F1): 0.84 fold | YDsRed Fold-induction (S. cerevisiae BY4741 [7]; control yeast (pESC-URA), pPOX1-F2): 0.74 fold | YDsRed Fold-induction (S. cerevisiae BY4741 [7]; control yeast (pESC-URA), pYGR287C-F1): 1.41 fold | YDsRed Fold-induction (S. cerevisiae BY4741 [7]; control yeast (pESC-URA), pYGR287C-F2): 1.13 fold | YDsRed Fold-induction (S. cerevisiae BY4741 [7]; recombinant OPH+ yeast (pYOPD-URA), pPOX1-F1): 3.0 fold | YDsRed Fold-induction (S. cerevisiae BY4741 [7]; recombinant OPH+ yeast (pYOPD-URA), pPOX1-F2): 8.3 fold | YDsRed Fold-induction (S. cerevisiae BY4741 [7]; recombinant OPH+ yeast (pYOPD-URA), pYGR287C-F1): 2.1 fold | YDsRed Fold-induction (S. cerevisiae BY4741 [7]; recombinant OPH+ yeast (pYOPD-URA), pYGR287C-F2): 2.4 fold | YDsRed fluorescence induction (S. cerevisiae BY4741 [7]; time course, recombinant OPH+ harboring pPDX1-F2-YDsRed, 260 min exposure to paraoxon): 2.5 fold | Growth rate vs wild-type ([8]; erg3 or erg4 strains): no difference in the growth rates | Growth rate ([8]; erg6): inhibited | Growth rate vs wild-type ([8]; erg6): significant decrease in the growth rate | Growth rate ([8]; wild-type strain BY4741): no effect | S. cerevisiae growth (OD600) (S. cerevisiae [9]; 0.5 mM paraoxon): did not significantly inhibit the growth | Growth of wild-type and OPH+ cells (S. cerevisiae [9]; 1 mM paraoxon, S. cerevisiae W3031A): inhibited to a similar extent | S. cerevisiae growth (OD600) (S. cerevisiae [9]; 4.0 mM paraoxon): prolonged lag phase | S. cerevisiae growth (OD600) (S. cerevisiae [9]; paraoxon at concentrations higher than 0.5 mM): growth retardation
